Results on one substance are retold here after patent publication US11471478B2, “Use of cyclodextrins in diseases and disorders involving phospholipid dysregulation” (priority 2017, dated 2022).

For the data set the following is noted: in vivo.

Regarding “2-hydroxypropyl-alpha-cyclodextrin [HP-α-CD]”, the “absorption of oral HP-α-CD” value was “not absorbed”.
